Nine molecules from PubChem BioAssay AID1220 (Sanford-Burnham Center for Chemical Genomics, 2008) can be followed below.

By UniProt entry, the sequences of proteins in these tests, tags left out.
UniProt P34949, whole entry: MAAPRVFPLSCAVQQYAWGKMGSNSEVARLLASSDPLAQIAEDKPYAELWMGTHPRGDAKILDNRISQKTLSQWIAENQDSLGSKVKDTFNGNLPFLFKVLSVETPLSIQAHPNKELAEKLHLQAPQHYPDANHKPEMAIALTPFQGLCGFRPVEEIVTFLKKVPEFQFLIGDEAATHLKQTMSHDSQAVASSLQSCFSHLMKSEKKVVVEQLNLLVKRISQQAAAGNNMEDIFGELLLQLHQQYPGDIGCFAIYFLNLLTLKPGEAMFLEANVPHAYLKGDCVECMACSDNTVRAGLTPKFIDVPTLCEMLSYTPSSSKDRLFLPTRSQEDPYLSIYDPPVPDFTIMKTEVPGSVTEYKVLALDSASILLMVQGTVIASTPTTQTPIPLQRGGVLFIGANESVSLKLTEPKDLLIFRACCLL

The list shows a part of the results, in another mix than the full data. Some tests of the compounds listed are not included; inactive here does not mean inactive elsewhere. Active and inactive are the calls of the source. Cut-off read from the data, not from the text of the source: active = inhibition above about 50%; inactive = the rest.

The assay addresses Mannose-6-phosphate isomerase (Homo sapiens) (UniProt P34949). As to the kind of experiment: MPI inhibition at elevated mannose 6-phosphate – biochemical, fluorescence intensity, high mannose 6-phosphate, primary screen (AID 1220). To be noted: recombinant PMI enzyme, coupled fluorescence intensity; at 20 µM; stronger effect = higher value.
As a reminder, the inhibition is the change of the read-out against control, counted positive when it falls. Regarding `CN(C)c1cccc(C(=O)NCC2(N(C)C)CCCCC2)c1`, the inhibition is inactive: 10.3%. With `O=C(OC1CN2CCC1CC2)C(CO)(c1ccccc1)c1ccccc1` (centres undefined) the figure was inactive: 0.7%; with `COc1cccc(C(=O)NCC2(N3CCCCC3)CCCCC2)c1`, inactive: 7.9%; with `CCN1CCCC(OC(=O)C2(O)c3ccccc3C=Cc3ccccc32)C1` (centres undefined), inactive: -4.4%.

As to `C=CCN1CCN(CCOC(=O)C(O)(c2ccccc2)c2ccccc2)CC1`, the inhibition is inactive: -13.9%.

As to `Cc1ccccc1C(=O)NCC1(N2CCCCC2)CCCCC1`, the inhibition is inactive: 2%. Under `CN(C)C1CCCC1OC(=O)C(O)(c1ccccc1)c1ccccc1` (centres undefined) stands inactive: -11.3%.

For `CC(C)N1C(=O)CC2(CCN(CCOC(=O)C(O)(c3ccccc3)c3ccccc3)CC2)C1=O`, the inhibition was inactive: -7.5%. With `O=C(NCC1(N2CCCCC2)CCCCC1)c1cc([N+](=O)[O-])ccc1Cl` the figure was inactive: -12.7%.
